Drawing on PMC12079475, “Identification, validation, and characterization of approved and investigational drugs interfering with the SARS‐CoV‐2 endoribonuclease Nsp15” (Protein Science : A Publication of the Protein Society, 2025), this text covers inhibition for 2 molecules.

In test [1] the target is T1, SARS‐CoV‐2 Nsp15 (Severe acute respiratory syndrome coronavirus 2, UniProt P0DTD1). Kind of test: biochemical.
Test [2] concerns the target T1, SARS‐CoV‐2 Nsp15. Kind of test: biochemical. The settings on record: read-out: Inhibition % +L-Cys 10 µM.
[3] abbreviates: read-out: HC inhibition % +DTT 10 µM.
Where [4] appears, read: read-out: PS Inhibition % 10 µM.
Setting [5] is: read-out: PS inhibition % 10 μM (single point measurement).

Counter-ions that a name gives are not always drawn. Like-named read-outs stand apart in the source and are kept apart here.

As usually defined, the inhibition is the relative decrease from the control value, in per cent.

Consider `COc1cccc2c1C(=O)c1c(O)c3c(c(O)c1C2=O)C[C@@](O)(C(=O)CO)C[C@@H]3O[C@H]1C[C@H](N)[C@H](O)[C@H](C)O1` [Doxorubicin], for which the inhibition at 10 µM is 65.8% at SARS‐CoV‐2 Nsp15 [1] (setting [3]), 80.2% at SARS‐CoV‐2 Nsp15 [1] (setting [4]), 80.2% at SARS‐CoV‐2 Nsp15 [1] (setting [5]) and 74.5% at SARS‐CoV‐2 Nsp15 [2].

Turning to `COc1cccc2c1C(=O)c1c(O)c3c(c(O)c1C2=O)C[C@@](O)(C(=O)CO)C[C@@H]3O[C@H]1C[C@H](N)[C@@H](O)[C@H](C)O1` [Epirubicin hydrochloride], the inhibition at 10 µM at SARS‐CoV‐2 Nsp15 [1] (setting [3]) is 73.2%; on SARS‐CoV‐2 Nsp15 [1] (setting [4]), 70.9%; at SARS‐CoV‐2 Nsp15 [1] (setting [5]) it was 70.9%; at SARS‐CoV‐2 Nsp15 [2] it was 81.7%.
